Measured values: publication PMC9920986 (Molecules, 2023)

The compounds below were run against T1, human recombinant NRH:quinone oxidoreductase (NQO2) (Homo sapiens, UniProt P16083) (assay: biochemical). Conditions: inhibitor 0–25 µM, BNAH 9.375–150 µM.
T1 construct: purchased Sigma Q0380
T1 sequence (P16083 1-231): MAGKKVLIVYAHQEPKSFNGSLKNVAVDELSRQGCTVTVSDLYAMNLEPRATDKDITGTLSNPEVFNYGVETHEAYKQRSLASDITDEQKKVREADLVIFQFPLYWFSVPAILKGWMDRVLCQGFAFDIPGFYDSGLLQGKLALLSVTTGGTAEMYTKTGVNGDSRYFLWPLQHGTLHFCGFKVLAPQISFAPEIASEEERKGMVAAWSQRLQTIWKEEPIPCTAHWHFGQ
Assay type: biochemical
Protocol: The inhibition activity of all synthesized compounds at a concentration of 10 µM was preliminarily tested in vitro using human recombinant NRH:quinone oxidoreductase (NQO2).
The activity of recombinant human NQO2 (Sigma #Q0380, St. Louis, […], USA) was evaluated kinetically using menadione and N-benzyl-dihydronicotinamide (BNAH) as the substrate and co-substrate, respectively. All reagents and test compounds were dissolved in 50 mM Hepes-KOH (pH 7.4) containing 1 mM of β-octyl-D-glucopyranoside, 0.1 mg/mL BSA and 1 μM FAD. […] Quercetin was used as a positive control. The solutions of the test compounds were pre-incubated for 5 min with 50 μL of human recombinant NQO2 (final concentration 42 ng/mL). Then, 25 μL of menadione was introduced at a final concentration of 100 μM. The reaction was started with 25 μL of 100 μM BNAH. The fluorescence of the co-substrate BNAH was followed at wavelengths of 370/440 nm at 37 °C using an Infinite M200 Pro microplate reader (Tecan, Grödig, Austria). The fluorescence data was fit according to a one-phase decay nonlinear regression to obtain slope values with Prism 8.0 (GraphPad Inc., San Diego, CA, USA). The activity in sample wells were normalized against negative control and enzyme-blank samples.
`CN1C(=O)C(=Cc2ccc(O)cc2)c2ccccc21` [Compound 15, 3-(4-hydroxybenzylidene)-N-methyl-2-oxindole] was tested, and the “Mechanism of NQO2 inhibition” value was “mixed-type (noncompetitive) inhibitor”.

Same assay, conditions: read-out: NQO2 Inhibition, %
In the case of `CCOc1ccc(/C=C2/C(=O)Nc3ccccc32)cc1` [Compound 22, (E)-3-(4-Ethoxybenzylidene)-2-oxindole], the inhibition at 10 µM is reported as 25.4%.
`O=C1Nc2ccc(Br)cc2C1=Cc1ccccn1` [Compound 3, 5-bromo-3-(2-pyridinylmethylidene)-2-oxindole] was tested, and the inhibition at 10 µM was 18.6%.
For `O=C1Nc2ccc(Br)cc2C1=Cc1cccs1` [Compound 38, 5-bromo-3-(2-thienylmethylidene)-2-oxindole], the inhibition at 10 µM was 29.9%.
In the case of `CC(=O)Nc1ccc2c(c1)C(=Cc1ccc(O)cc1)C(=O)N2` [Compound 16, (E,Z)-3-(4-Hydroxybenzylidene)-5-acetamido-2-oxindole], the inhibition at 10 µM is reported as 70.4%.
Work on `COC(=O)Nc1ccc2c(c1)C(=Cc1ccc(Br)cc1)C(=O)N2` [Compound 32, 3-(4-bromobenzylidene)-5-(methoxycarbonylamino)-2-oxindole] yielded an inhibition at 10 µM of 95.5%.
In the case of `Cn1cc(C=C2C(=O)Nc3ccccc32)cn1` [Compound 41, 3-((1-methyl-1H-pyrazol-4-yl)methylene)-2-oxindole], the inhibition at 10 µM is reported as 59.8%.
`O=C1Nc2ccccc2C1=Cc1ccc(O)cc1` [Compound 14, 3-(4-hydroxybenzylidene)-2-oxindole] showed an inhibition at 10 µM of 31.7%.
`COc1cc(C=C2C(=O)Nc3ccccc32)cc(OC)c1OC` [Compound 23, (E,Z)-3-(3,4,5-Trimethoxybenzylidene)-2-oxindole] was tested, and the inhibition at 10 µM was 85.7%.
Compound `CC(=O)Nc1ccc2c(c1)C(=Cc1ccccn1)C(=O)N2` [Compound 5, (E,Z)-3-(2-Pyridinylmethylidene)-5-acetamido-2-oxindole] has an inhibition at 10 µM of 46.4%.
In the case of `Nc1ccc2c(c1)C(Cc1ccccn1)C(=O)N2` (centres unmarked) [Compound 47, 3-(pyridin-2-ylmethyl)-5-amino-2-oxindole], the inhibition at 10 µM is reported as 26.9%.
`COC(=O)CCn1cc(C=C2C(=O)Nc3ccccc32)cn1` [Compound 45, (E,Z)-3-(1-[2-(Methoxycarbonyl)ethyl]-1H-pyrazol-4-ylmethylidene)-2-oxindole] was tested, and the inhibition at 10 µM was 29%.
`O=C1Nc2ccc(Br)cc2C1=Cc1ccco1` [Compound 35, 5-bromo-3-(2-furylmethylidene)-2-oxindole] was tested, and the inhibition at 10 µM was -15.2%.
In the case of `COc1cc(C=C2C(=O)Nc3ccc(NC(C)=O)cc32)cc(OC)c1OC` [Compound 24, 3-(3,4,5-trimethoxybenzylidene)-5-acetylamino-2-oxindole], the inhibition at 10 µM is reported as 92.8%.
`CCOC(=O)c1[nH]ncc1C=C1C(=O)Nc2ccccc21` [Compound 39, 3-((5-ethoxycarbonyl-1H-pyrazol-4-yl)methylene)-2-oxindole] showed an inhibition at 10 µM of 47.3%.
For `CCOC(=O)c1[nH]ncc1C=C1C(=O)Nc2ccc([N+](=O)[O-])cc21` [Compound 40, 3-((5-ethoxycarbonyl-1H-pyrazol-4-yl)methylene)-5-nitro-2-oxindole], the inhibition at 10 µM was 92.3%.
In the case of `COC(=O)Nc1ccc2c(c1)C(=Cc1ccc(O)cc1)C(=O)N2` [Compound 17, 3-(4-hydroxybenzylidene)-5-(methoxycarbonylamino)-2-oxindole], the inhibition at 10 µM is reported as 93.6%.
With `O=C1Nc2ccc([N+](=O)[O-])cc2C1=Cc1ccncc1` [Compound 12, 5-nitro-3-(4-pyridinylmethylidene)-2-oxindole] the inhibition at 10 µM was 19.2%.
With `O=C1Nc2ccc([N+](=O)[O-])cc2C1=Cc1cccnc1` [Compound 9, 5-nitro-3-(3-pyridinylmethylidene)-2-oxidole] the inhibition at 10 µM was 4.25%.
`O=C1Nc2ccc(NC(=O)c3ccccc3)cc2C1=Cc1ccc([N+](=O)[O-])cc1` (mixture of isomers) [Compound 29, 5-benzoylamino-3-((4-nitrophenyl)methylene)-2-oxindole] was tested, and the inhibition at 10 µM was 21.8%.
In the case of `O=C1Nc2ccccc2C1=Cc1ccncc1` [Compound 10, 3-(4-pyridinylmethylidene)-2-oxindole], the inhibition at 10 µM is reported as 27.3%.
`O=C1Nc2ccccc2C1=Cc1ccc([N+](=O)[O-])cc1` [Compound 27, 3-((4-nitrophenyl)methylene)-2-oxindole] was tested, and the inhibition at 10 µM was 4.66%.
For `Cc1n[nH]cc1C=C1C(=O)Nc2ccccc21` [Compound 43, 3-((3-methyl-1H-pyrazol-4-yl)methylene)-2-oxindole], the inhibition at 10 µM was 77.8%.
`CN(C)c1ccc(C=C2C(=O)Nc3ccccc32)cc1` [Compound 30, (E,Z)-3-(4-Dimethylaminobenzylidene)-2-oxindole] gave an inhibition at 10 µM of 27.3%.
For `O=C1Nc2ccc(NC(=O)c3ccco3)cc2C1=Cc1ccc(O)cc1` [Compound 18, 3-(4-hydroxybenzylidene)-5-furoylamino-2-oxindole], the inhibition at 10 µM was 96.4%.
`O=C1Nc2ccc([N+](=O)[O-])cc2C1=Cc1ccccn1` [Compound 4, 5-nitro-3-(2-pyridinylmethylidene)-2-oxindole] showed an inhibition at 10 µM of 1.85%.
`CN1C(=O)C(=Cc2ccc(O)cc2)c2ccccc21` [Compound 15, 3-(4-hydroxybenzylidene)-N-methyl-2-oxindole] was tested, and the inhibition at 10 µM was 98.9%.
With `Nc1ccc(CC2C(=O)Nc3ccccc32)cc1` (centres unmarked) [Compound 46, 3-(4-aminobenzyl)-2-oxindole] the inhibition at 10 µM was 19.1%.
Compound `O=c1c(O)c(-c2ccc(O)c(O)c2)oc2cc(O)cc(O)c12` [Quercetin, reference compound] has an inhibition at 10 µM of 98%.
For `CN1C(=O)C(=Cc2ccccn2)c2ccccc21` [Compound 2, N-methyl-3-((pyridin-2-yl)methylene)-2-oxindole], the inhibition at 10 µM was 64.4%.
`Cc1ccc(C(=O)CC2(O)C(=O)Nc3ccc(NC(=O)c4ccco4)cc32)cc1` (centres unmarked) [Compound 51, 3-hydroxy-5-(2-furoylamino)-3-[2-(4-methylphenyl)-2-oxoethyl]-2-oxindole] gave an inhibition at 10 µM of 25.6%.
For `COc1ccc2c(c1)C(O)(CC(=O)c1ccc(C)cc1)C(=O)N2` (centres unmarked) [Compound 48, 3-hydroxy-5-methoxy-3-[2-(4-methylphenyl)-2-oxoethyl]-2-oxindole], the inhibition at 10 µM was -50.3%.
`Cc1ccc(C(=O)CC2(O)C(=O)Nc3ccccc32)cc1` (centres unmarked) [Compound 52, 3-hydroxy-3-[2-(4-methylphenyl)-2-oxoethyl]-2-oxindole] was tested, and the inhibition at 10 µM was -92.9%.
`CC(=O)Nc1ccc2c(c1)C(=Cc1cccc(O)c1)C(=O)N2` [Compound 13, 3-(3-hydroxybenzylidene)-5-acetylamino-2-oxindole] showed an inhibition at 10 µM of 89.1%.
Work on `Cc1ccc(C(=O)CC2(O)C(=O)Nc3ccc(Br)cc32)cc1` (centres unmarked) [Compound 49, 3-hydroxy-5-bromo-3-[2-(4-methylphenyl)-2-oxoethyl]-2-oxindole] yielded an inhibition at 10 µM of -85.2%.
`O=C1Nc2ccccc2/C1=C\c1ccccn1` [Compound 1, (E)-3-(2-pyridinylmethylidene)-2-oxindole] showed an inhibition at 10 µM of 19.6%.
Work on `COc1cc(C=C2C(=O)Nc3ccc(NC(=O)c4ccco4)cc32)cc(OC)c1OC` [Compound 25, 3-(3,4,5-trimethoxybenzylidene)-5-furoylamino-2-oxindole] yielded an inhibition at 10 µM of 91%.
For `COc1ccc(C=C2C(=O)Nc3ccc(NC(=O)c4ccccc4)cc32)cc1` [Compound 21, (E,Z)-3-(4-Methoxybenzylidene)-5-benzoylamino-2-oxindole], the inhibition at 10 µM was 30.9%.
